Experimental findings from publication PMC11665553, “12-Lipoxygenase inhibition delays onset of autoimmune diabetes in human gene replacement mice” (JCI Insight, 2024) are described below.

This series can be described thus: Pharmacokinetics after single p.o. dose in NOD.ShiLt/J mice (plasma LC-MS/MS). The following applies: 30 mg/kg p.o., mean ± SD.

The compound `COc1cccc(CNc2ccc(S(=O)(=O)Nc3nc4ccccc4s3)cc2)c1O` [VLX-1005] yielded a tmax of 15 ± 0 min.
